The assay addresses Smc5/6 octamer (holo-complex; hexamer plus Nse5/6) (Saccharomyces cerevisiae, UniProt Q08204+Q12749). The assay is described as follows: pyruvate kinase/lactate dehydrogenase coupled ATPase assay, Michaelis-Menten fit. The settings on record: no DNA; 150 nM octamer; 10 mM Hepes-KOH pH 7.5, 150 mM potassium acetate, 2 mM MgCl2, 20% glycerol; 25 °C.

Amino acid sequences for entries named in this document (tags omitted). A change or cut given only in a name is not applied to a line headed by its entry.
UniProt Q08204: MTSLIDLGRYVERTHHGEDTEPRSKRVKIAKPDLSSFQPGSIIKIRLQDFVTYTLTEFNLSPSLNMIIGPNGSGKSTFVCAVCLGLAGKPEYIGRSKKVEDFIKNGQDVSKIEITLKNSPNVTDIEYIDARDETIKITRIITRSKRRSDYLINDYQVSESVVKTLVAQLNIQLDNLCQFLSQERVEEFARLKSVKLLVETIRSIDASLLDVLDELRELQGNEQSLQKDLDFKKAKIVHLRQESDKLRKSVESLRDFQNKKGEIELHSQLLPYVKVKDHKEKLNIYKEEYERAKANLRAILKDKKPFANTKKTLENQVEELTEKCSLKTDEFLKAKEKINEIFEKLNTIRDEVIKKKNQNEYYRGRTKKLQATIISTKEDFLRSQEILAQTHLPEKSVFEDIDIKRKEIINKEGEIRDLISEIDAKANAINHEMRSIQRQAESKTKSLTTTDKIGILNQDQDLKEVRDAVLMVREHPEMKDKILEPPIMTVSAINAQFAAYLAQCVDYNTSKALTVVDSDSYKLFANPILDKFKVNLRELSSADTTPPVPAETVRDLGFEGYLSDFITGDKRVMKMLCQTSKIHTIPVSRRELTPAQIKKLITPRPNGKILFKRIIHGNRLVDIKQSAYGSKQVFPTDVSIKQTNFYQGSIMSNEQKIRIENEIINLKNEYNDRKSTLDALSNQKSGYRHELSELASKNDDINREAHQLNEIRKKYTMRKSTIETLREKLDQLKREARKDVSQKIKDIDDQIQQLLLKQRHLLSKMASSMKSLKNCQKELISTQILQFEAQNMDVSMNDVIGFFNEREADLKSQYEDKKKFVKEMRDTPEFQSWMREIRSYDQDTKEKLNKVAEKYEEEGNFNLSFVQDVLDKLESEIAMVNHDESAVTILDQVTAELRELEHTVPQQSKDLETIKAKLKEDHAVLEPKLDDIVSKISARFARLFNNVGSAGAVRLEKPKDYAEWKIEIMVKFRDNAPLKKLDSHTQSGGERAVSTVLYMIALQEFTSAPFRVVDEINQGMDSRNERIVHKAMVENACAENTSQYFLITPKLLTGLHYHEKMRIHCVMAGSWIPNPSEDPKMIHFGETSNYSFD
UniProt Q12749: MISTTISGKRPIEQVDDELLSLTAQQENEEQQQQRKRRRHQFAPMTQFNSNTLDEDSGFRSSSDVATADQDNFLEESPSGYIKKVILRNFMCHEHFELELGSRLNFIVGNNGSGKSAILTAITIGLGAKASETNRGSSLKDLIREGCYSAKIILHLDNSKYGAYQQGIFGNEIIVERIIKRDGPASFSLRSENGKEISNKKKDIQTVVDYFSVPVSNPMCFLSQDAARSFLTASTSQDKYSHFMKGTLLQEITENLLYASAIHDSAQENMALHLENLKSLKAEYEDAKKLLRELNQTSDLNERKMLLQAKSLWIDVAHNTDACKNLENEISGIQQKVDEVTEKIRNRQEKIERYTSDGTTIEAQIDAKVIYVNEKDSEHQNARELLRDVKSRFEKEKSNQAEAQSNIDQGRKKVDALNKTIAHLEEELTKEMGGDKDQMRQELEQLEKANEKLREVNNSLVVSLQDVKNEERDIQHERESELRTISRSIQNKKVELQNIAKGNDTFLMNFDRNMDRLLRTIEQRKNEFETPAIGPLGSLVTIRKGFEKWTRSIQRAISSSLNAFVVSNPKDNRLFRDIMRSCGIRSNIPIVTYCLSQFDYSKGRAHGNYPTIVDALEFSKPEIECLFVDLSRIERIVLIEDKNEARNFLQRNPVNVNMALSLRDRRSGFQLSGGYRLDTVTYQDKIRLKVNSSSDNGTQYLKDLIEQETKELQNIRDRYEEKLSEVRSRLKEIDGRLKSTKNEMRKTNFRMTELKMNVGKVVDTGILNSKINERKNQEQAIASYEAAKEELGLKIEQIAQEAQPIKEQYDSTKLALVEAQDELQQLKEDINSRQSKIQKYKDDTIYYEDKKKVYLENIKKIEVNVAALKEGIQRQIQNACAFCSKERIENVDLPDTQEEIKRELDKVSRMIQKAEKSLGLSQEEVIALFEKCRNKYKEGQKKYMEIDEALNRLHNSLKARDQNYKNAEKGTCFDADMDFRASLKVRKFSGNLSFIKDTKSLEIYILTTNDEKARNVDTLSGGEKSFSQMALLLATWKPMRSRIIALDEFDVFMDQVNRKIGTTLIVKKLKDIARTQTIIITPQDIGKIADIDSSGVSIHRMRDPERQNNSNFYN

Consider `Nc1ncnc2c1ncn2[C@@H]1O[C@H](COP(=O)(O)OP(=O)(O)OP(=O)(O)O)[C@@H](O)[C@H]1O` [ATP], for which the Km result was “The curves were fitted to Michaelis–Menten equation, and Km and kcat values were determined”.

(Values after PMC8327961, “Nse5/6 inhibits the Smc5/6 ATPase and modulates DNA substrate binding” (The EMBO Journal, 2021).)
